Molecular target: T1, recombinant CD73 (SPR analyte) (UniProt P21589 27-549)
T1 construct: CD73 (NT5E), recombinant; May be the same protein as m6 (His-CD73); source: recombinant
T1 sequence (looked up): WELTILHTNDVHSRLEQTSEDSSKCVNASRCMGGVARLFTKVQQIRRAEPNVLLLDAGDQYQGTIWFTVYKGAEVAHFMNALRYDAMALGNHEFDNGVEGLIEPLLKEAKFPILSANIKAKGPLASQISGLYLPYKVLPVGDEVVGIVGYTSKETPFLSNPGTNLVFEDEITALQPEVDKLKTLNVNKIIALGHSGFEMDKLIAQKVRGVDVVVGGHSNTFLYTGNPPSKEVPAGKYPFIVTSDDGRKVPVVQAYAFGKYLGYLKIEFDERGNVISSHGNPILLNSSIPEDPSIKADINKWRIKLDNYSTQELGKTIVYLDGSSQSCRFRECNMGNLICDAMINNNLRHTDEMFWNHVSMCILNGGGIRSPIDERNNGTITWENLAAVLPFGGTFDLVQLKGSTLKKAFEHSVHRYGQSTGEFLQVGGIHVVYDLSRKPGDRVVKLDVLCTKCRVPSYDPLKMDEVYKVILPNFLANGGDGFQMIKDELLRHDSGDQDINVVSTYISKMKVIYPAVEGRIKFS
Assay: SPR; Biacore 8K, CM5 sensor chip; TRIM21 immobilised; recombinant CD73 at 96, 48, 24, 12, 6 and 3 nM or Snail at 64, 32, 16, 8, 4 and 2 nM flowed over
Conditions: both partners purified

B1: TRIM21 immobilised on the SPR chip (natural protein, UniProt P19474 1-475, looked up)
chain: MASAARLTMMWEEVTCPICLDPFVEPVSIECGHSFCQECISQVGKGGGSVCPVCRQRFLLKNLRPNRQLANMVNNLKEISQEAREGTQGERCAVHGERLHLFCEKDGKALCWVCAQSRKHRDHAMVPLEEAAQEYQEKLQVALGELRRKQELAEKLEVEIAIKRADWKKTVETQKSRIHAEFVQQKNFLVEEEQRQLQELEKDEREQLRILGEKEAKLAQQSQALQELISELDRRCHSSALELLQEVIIVLERSESWNLKDLDITSPELRSVCHVPGLKKMLRTCAVHITLDPDTANPWLILSEDRRQVRLGDTQQSIPGNEERFDSYPMVLGAQHFHSGKHYWEVDVTGKEAWDLGVCRDSVRRKGHFLLSSKSGFWTIWLWNKQKYEAGTYPQTPLHLQVPPCQVGIFLDYEAGMVSFYNITDHGSLIYSFSECAFTGPLRPFFSPGFNDGGKNTAPLTLCPLNIGSQGSTDY
notes: TRIM21 immobilised on a CM5 chip; May be the same protein as m5 (GST-TRIM21)
Kd: 6.2 ± 0.7 nM

From publication PMC9951332 (Advanced Science, 2022)
